Reference: article PMC7083851, “Extended pharmacodynamic responses observed upon PROTAC-mediated degradation of RIPK2” (Communications Biology, 2020)

Test system: human PBMCs

CN[C@@H](C)C(=O)N[C@H](C(=O)N1C[C@@H](NC(=O)c2cnc(N3CCN(CCCOc4cc5ncnc(Nc6n[nH]c(C)c6C)c5cc4S(=O)(=O)C(C)(C)C)CC3)cn2)C[C@H]1C(=O)Nc1c(F)cccc1F)C(C)(C)C [PROTAC 6]
effect on cell viability, in words: no
